Assays:
[1] = target: RAF proto-oncogene serine/threonine-protein kinase (Homo sapiens, UniProt P04049, Y340E/Y341E); test: Inhibition of CRAF Y340E/Y341E mutant (unknown origin) using human MEK1 K97R mutant as substrate pretreated for 30 mins followed by substrate addition measured after 40 mins by alphascreen assay
[2] = target: T1, RAF proto-oncogene serine/threonine-protein kinase (Homo sapiens, UniProt P04049); test: Inhibition CRAF in human Calu6 cells assessed as decrease in MEK phosphorylation after 2 hrs by HTRF method; type: cell-based
BRAF/CRAF = BRAF/CRAF (Homo sapiens, UniProt P04049+P15056); test: Stimulation of BRAF-CRAF dimerization in human HCT116 cells by luciferase complementation assay; type: cell-based
[3] = target: T1, RAF proto-oncogene serine/threonine-protein kinase; test: Inhibition of CRAF in human Calu6 cells assessed as decrease in ERK phosphorylation; type: cell-based

Chains of the proteins cited; added tags and fusions are not shown.
UniProt P04049, whole entry Y340E/Y341E: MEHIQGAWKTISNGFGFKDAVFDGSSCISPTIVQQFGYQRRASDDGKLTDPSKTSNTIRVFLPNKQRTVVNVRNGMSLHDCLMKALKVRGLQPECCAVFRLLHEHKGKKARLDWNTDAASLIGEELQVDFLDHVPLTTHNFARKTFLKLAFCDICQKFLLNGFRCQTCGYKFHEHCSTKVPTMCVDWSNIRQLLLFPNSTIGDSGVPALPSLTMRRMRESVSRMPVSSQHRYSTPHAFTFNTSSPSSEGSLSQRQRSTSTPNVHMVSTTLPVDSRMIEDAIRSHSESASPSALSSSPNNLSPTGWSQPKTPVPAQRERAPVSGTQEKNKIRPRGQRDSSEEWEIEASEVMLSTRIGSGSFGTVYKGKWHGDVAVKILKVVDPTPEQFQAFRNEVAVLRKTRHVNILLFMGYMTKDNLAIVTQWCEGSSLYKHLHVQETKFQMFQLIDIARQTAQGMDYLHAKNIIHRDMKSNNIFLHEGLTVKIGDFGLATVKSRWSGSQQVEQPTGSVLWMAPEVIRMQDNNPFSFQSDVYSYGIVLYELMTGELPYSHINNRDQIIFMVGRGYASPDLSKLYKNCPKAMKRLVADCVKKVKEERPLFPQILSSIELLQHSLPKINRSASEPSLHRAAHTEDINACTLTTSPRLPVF
UniProt P15056, whole entry: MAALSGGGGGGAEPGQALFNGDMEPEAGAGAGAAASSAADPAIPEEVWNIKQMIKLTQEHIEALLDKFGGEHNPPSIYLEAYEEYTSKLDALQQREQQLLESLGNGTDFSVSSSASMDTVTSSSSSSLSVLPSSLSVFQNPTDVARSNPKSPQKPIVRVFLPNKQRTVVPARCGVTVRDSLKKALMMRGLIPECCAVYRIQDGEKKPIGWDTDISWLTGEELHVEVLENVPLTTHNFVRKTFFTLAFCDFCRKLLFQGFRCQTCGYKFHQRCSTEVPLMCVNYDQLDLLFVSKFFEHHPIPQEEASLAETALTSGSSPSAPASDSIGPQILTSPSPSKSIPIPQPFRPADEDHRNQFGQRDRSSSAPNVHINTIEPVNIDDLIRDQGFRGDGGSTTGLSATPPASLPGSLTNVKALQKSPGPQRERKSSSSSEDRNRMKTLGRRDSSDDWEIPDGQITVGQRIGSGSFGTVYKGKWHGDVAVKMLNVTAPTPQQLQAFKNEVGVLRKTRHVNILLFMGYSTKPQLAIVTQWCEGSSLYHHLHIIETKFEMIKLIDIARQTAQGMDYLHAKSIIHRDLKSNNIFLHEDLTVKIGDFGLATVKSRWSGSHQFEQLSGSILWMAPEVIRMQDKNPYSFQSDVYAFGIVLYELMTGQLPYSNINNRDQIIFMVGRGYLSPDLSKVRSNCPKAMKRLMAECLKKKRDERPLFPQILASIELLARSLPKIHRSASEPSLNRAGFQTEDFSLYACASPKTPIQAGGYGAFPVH

SMILES	IC50 [1] [nM]	EC50 [2] [nM]	EC50 (BRAF/CRAF) [nM]	EC50 [3] [nM]
Cc1ncc(NC(=O)c2cccc(C(F)(F)F)c2)cc1-c1cnc(OC(C)C)c(N2CCOCC2)c1	0.6	300	–	–
Cc1ccc(NC(=O)c2cccc(C(F)(F)F)c2)cc1-c1cc(N2CCOCC2)ncn1	–	80	–	–
Cc1ncc(NC(=O)c2cccc(C(F)(F)F)c2)cc1-c1cnc(OC2CCOCC2)c(N2CCOCC2)c1	–	20	796	100
Cc1ncc(NC(=O)c2cccc(C(F)(F)F)c2)cc1-c1cnc(OCCO)c(N2CCOCC2)c1	0.5	80	–	–

— ChEMBL document CHEMBL4011620, “Design and Discovery of N-(2-Methyl-5'-morpholino-6'-((tetrahydro-2H-pyran-4-yl)oxy)-[3,3'-bipyridin]-5-yl)-3-(trifluoromethyl)benzamide (RAF709): A Potent, Selective, and Efficacious RAF Inhibitor Targeting RAS Mutant Cancers” (J Med Chem, 2017)
